SMILES strings stand for the structures. The entries are a selection whose mix differs from that of the whole data set. Activity calls are given as the source filed them.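 The calls were made as follows: active = growth inhibition above 50% at the single 2 µM test dose, taken to imply half-maximal potency below 2 µM; inactive = the rest.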

The assay in a line: antimalarial activity against Dd2 strain (AID 2302).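 Also: 0% = DMSO untreated growth and 100% = chloroquine plus artemisinin killed control.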 The settings on record: P. falciparum Dd2 in RBCs, LDH growth readout, 72 h; at 2 µM; hits give high values.
With `CCN1CCCC1COC(=O)C(O)(c1ccc2c(c1)OCO2)c1ccc2c(c1)OCO2` (configuration not stated), the growth inhibition was inactive: -1%.

For `CCN1CCCC(OC(=O)C(O)(c2ccc3c(c2)OCO3)c2ccc3c(c2)OCO3)C1` (configuration not stated), the growth inhibition is inactive: 7%.

For the origin of these results see PubChem BioAssay AID2302 (GlaxoSmithKline (GSK), 2010).
